Results published in US7186726B2.
Read-outs that look alike come from different tables or passages of the source.

Protein sequences, listed by entry. Tags and fused reporters are not part of them. Lines headed by an entry give the natural chain unless they say otherwise; changes in a name come on top. Residues count along the entry.
UniProt Q02294, whole entry: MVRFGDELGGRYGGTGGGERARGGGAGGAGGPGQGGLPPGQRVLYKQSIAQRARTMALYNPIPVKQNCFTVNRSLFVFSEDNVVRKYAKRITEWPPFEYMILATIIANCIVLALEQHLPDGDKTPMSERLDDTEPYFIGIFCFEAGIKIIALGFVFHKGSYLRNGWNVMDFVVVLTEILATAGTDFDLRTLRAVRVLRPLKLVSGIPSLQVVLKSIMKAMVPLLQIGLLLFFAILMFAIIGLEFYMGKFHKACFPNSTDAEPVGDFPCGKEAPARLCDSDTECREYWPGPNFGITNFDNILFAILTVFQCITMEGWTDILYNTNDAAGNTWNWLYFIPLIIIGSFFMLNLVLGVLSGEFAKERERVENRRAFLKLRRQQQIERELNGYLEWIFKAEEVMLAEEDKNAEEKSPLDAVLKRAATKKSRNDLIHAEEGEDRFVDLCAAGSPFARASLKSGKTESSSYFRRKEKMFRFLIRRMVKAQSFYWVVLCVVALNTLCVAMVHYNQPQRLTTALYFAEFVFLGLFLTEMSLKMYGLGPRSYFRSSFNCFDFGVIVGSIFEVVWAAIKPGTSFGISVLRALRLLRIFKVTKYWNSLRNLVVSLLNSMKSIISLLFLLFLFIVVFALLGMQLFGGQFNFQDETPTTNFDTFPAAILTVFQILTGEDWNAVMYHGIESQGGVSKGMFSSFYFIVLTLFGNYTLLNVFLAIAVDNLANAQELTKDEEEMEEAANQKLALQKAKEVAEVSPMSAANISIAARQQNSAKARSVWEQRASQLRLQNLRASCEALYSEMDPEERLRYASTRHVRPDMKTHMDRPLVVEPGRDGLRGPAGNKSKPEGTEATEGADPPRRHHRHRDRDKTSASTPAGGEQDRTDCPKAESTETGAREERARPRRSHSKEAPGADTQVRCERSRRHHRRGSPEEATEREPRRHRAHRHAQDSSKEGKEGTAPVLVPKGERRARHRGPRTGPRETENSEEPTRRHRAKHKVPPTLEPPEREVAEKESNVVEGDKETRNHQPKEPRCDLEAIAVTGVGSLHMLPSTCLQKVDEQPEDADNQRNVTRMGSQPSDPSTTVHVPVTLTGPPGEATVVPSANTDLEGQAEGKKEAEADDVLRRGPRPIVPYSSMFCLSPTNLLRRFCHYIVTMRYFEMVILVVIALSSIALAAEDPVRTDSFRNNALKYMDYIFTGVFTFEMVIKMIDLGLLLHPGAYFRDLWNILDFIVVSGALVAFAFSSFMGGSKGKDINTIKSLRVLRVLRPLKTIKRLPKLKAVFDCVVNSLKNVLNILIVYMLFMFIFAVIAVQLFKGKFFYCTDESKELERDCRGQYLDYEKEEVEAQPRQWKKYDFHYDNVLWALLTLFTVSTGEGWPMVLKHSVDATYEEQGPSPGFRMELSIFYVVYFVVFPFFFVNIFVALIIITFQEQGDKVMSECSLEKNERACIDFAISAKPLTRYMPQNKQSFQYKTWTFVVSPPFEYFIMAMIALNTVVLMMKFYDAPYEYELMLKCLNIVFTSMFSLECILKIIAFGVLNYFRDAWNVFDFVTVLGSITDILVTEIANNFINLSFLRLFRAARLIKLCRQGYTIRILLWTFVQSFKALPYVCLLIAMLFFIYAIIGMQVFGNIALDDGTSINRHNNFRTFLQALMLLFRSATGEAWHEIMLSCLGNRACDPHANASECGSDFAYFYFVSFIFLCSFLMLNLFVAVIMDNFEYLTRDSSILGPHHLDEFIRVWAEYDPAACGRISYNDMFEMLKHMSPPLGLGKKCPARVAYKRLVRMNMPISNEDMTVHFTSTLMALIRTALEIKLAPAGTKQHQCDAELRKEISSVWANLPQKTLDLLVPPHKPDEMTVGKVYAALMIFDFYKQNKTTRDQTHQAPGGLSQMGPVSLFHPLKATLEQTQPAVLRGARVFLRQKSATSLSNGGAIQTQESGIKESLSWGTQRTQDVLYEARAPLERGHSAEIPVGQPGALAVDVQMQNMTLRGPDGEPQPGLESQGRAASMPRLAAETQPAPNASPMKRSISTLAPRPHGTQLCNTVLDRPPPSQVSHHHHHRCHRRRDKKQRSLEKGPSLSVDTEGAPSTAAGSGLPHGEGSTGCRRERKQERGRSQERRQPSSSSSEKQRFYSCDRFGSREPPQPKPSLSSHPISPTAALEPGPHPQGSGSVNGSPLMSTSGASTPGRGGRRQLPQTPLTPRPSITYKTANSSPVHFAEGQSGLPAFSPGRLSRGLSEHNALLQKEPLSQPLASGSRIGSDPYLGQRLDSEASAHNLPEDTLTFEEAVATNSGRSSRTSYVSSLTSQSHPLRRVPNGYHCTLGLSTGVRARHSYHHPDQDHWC
UniProt O43497, whole entry: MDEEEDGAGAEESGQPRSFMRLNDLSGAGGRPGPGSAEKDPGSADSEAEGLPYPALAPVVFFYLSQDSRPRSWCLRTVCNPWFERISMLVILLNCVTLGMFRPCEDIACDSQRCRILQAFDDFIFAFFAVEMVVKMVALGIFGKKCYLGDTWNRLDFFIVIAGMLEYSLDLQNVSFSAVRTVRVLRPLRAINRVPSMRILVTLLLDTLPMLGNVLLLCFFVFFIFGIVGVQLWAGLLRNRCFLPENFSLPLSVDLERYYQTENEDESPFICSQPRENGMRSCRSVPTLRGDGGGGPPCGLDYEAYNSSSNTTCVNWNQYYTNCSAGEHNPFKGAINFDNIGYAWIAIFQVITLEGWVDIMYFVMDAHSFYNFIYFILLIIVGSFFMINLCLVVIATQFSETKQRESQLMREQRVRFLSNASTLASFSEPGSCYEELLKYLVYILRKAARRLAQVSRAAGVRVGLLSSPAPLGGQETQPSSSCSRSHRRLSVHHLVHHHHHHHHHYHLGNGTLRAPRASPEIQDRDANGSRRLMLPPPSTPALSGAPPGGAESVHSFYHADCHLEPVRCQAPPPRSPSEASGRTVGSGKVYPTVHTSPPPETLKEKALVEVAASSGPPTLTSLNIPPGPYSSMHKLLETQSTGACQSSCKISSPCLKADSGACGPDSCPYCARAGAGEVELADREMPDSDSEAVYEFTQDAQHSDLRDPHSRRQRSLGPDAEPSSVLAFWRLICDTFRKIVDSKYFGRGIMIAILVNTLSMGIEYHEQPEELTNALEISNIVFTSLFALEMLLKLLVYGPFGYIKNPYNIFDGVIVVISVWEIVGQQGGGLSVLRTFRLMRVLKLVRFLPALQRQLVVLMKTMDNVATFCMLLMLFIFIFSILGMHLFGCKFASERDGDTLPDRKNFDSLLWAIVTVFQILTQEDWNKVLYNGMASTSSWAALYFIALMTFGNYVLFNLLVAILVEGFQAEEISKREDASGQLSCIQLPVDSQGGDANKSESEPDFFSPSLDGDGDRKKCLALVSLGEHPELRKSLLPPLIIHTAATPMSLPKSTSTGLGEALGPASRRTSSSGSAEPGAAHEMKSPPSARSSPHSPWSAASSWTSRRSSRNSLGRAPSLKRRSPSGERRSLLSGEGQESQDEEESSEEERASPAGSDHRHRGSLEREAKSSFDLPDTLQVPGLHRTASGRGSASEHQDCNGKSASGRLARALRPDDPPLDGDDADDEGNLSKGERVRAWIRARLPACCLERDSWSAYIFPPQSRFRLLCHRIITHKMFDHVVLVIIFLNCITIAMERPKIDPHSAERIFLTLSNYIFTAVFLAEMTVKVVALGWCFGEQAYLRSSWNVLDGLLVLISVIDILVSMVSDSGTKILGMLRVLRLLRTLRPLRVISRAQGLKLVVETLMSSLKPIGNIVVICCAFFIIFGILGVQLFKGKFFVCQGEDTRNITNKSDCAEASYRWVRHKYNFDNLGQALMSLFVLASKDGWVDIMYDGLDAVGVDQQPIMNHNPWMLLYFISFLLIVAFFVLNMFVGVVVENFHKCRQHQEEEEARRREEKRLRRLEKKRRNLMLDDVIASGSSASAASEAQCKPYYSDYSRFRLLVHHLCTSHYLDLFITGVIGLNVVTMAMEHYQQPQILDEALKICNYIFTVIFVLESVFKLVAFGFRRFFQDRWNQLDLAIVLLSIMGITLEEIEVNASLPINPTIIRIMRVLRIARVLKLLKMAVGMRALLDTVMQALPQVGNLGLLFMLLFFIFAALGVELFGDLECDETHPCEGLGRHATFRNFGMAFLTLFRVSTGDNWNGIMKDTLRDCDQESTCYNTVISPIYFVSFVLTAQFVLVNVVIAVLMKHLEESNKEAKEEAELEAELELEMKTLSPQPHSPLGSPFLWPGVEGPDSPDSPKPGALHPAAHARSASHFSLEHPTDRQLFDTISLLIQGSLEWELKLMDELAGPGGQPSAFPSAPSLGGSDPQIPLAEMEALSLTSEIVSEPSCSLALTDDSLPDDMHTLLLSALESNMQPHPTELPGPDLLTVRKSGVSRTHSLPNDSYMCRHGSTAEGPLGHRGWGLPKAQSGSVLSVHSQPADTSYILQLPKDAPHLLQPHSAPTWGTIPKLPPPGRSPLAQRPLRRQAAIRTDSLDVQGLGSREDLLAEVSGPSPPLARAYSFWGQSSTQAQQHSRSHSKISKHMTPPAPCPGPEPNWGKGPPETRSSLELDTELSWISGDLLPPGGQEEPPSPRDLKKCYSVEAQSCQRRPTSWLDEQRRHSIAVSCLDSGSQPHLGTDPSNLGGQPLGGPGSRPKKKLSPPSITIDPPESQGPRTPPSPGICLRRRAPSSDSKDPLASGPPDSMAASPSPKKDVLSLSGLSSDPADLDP
UniProt P54283, whole entry partner: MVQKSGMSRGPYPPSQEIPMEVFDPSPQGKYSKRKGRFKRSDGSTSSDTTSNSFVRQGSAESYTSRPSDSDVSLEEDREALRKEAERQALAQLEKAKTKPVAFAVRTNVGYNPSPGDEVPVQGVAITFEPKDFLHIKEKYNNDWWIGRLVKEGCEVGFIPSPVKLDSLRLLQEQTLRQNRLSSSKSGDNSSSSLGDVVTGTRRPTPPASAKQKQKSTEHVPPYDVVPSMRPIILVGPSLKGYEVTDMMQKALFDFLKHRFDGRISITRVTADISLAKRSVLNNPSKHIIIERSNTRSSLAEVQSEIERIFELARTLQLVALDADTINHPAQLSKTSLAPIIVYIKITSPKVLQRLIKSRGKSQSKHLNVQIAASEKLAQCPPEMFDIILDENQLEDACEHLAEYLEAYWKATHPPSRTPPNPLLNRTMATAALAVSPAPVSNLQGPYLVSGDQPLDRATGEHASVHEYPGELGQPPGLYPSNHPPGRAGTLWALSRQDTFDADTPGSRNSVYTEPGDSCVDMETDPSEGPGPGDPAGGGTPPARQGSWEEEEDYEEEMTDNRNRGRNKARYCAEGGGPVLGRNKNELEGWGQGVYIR
UniProt P54290, 25-944 partner limits assumed: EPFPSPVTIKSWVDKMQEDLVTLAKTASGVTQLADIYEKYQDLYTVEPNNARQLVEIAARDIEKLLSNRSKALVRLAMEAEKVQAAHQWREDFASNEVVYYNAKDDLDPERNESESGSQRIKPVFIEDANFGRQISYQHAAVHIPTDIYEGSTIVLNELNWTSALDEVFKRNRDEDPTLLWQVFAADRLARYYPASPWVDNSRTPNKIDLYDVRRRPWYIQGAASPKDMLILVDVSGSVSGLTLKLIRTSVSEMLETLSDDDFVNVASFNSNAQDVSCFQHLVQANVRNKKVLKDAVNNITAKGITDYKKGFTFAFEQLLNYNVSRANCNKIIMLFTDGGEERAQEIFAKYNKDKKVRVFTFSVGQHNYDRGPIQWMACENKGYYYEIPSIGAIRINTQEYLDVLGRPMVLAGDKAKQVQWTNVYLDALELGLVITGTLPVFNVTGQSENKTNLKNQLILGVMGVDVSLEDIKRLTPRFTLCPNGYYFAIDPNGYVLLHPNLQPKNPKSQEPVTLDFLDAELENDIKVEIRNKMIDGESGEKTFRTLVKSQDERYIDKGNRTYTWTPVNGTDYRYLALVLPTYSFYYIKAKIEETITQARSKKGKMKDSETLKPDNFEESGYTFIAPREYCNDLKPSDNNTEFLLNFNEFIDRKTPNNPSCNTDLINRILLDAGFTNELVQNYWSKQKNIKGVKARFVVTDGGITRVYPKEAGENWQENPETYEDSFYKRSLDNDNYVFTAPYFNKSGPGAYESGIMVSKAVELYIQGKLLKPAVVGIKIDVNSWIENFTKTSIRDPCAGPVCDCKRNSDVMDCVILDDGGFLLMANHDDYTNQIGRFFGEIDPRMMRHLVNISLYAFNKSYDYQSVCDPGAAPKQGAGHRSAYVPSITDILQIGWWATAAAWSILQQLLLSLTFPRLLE
UniProt P54290, 945-1091 partner limits assumed: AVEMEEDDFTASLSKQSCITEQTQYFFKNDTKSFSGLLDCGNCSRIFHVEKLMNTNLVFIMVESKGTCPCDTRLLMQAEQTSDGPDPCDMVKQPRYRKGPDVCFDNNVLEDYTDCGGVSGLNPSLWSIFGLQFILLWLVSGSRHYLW

Assays:
[1] = molecular target: rat brain N-type calcium channel (α1B+α2δ+β1b) (Rattus norvegicus, UniProt Q02294); assay: N-type calcium channel blocking activity, whole cell patch clamp in HEK 293 cells; details: read-out: Block of α1B N-type Channels IC50
[2] = molecular target: human α1G T-type channels (Homo sapiens, UniProt O43497); assay: Block of α1G T-type channels, patch clamp in HEK cell lines; details: for IC50: read-out: Block of α1G T-type Channels IC50
[3] = molecular target: rat α1B+α2b+β1b channels (N-type channels) (Rattus norvegicus, UniProt Q02294); assay: Selective calcium channel blocking activity, whole cell patch recordings, N-type; details: for IC50: read-out: N-type IC50, 0.1 Hz, 5 mM Ba2+
[4] = tested on: P/Q-type channels (α1A+α2δ+β1b); assay: Selective calcium channel blocking activity, whole cell patch recordings, P/Q-type; details: read-out: P/Q-type IC50; 0.1 Hz, 5 mM Ba2+
[5] = tested on: L-type channels (α1C+α2δ+β1b); assay: Selective calcium channel blocking activity, whole cell patch recordings, L-type; details: read-out: L-type IC50; 0.1 Hz, 5 mM Ba2+

SMILES	IC50 ([1]; 0.067 Hz)	IC50 ([1]; 0.2 Hz)	other results
COc1cc(OCCN2CCN(C(=O)CC(c3ccccc3)c3ccccc3)CC2)cc(OC)c1OC	520 nM	360 nM	
Cc1cc(OCCN2CCN(C(=O)CC(c3ccccc3)c3ccccc3)CC2)c(C)c(C)c1N			IC50 ([1]; 0.067 Hz, tested form: 2HCl): 670 nM; IC50 ([1]; 0.2 Hz, tested form: 2HCl): 420 nM
COc1ccc(OCCN2CCN(C(=O)CC(c3ccccc3)c3ccccc3)CC2)cc1OC	1090 nM	800 nM	
CCCCCCCN1CCN(C(=O)CC(c2ccccc2)c2ccccc2)CC1	376 nM	224 nM	
Cc1cc(OCCN2CCN(C(=O)CC(c3ccccc3)c3ccccc3)CC2)c(C)c(C)c1NC(=O)OC(C)(C)C	450 nM	350 nM	
C=CCN(CC=C)CCN1CCN(C(=O)CC(c2ccccc2)c2ccccc2)CC1	350 nM	288 nM	
CC(C)N1CCN(C(=O)CC(c2ccccc2)c2ccccc2)CC1	715 nM	371 nM	
O=C(CC(c1ccccc1)c1ccccc1)N1CCN(CCNc2ccccc2)CC1	3550 nM	601 nM	Block of α1G T-type Channels IC50 ([2]; −100 mV): No effect
CCC(CC)N1CCN(C(=O)CC(c2ccccc2)c2ccccc2)CC1	534 nM	321 nM	
CC(c1ccccc1)N1CCN(C(=O)CC(c2ccccc2)c2ccccc2)CC1 (stereo not shown)	660 nM	480 nM	
CN(C(=O)CN1CCN(C(=O)CC(c2ccccc2)c2ccccc2)CC1)c1ccccc1	471 nM	295 nM	
O=C(CC(c1ccccc1)c1ccccc1)N1CCN(C(c2ccc(F)cc2)C2CC2)CC1 (stereo not shown)	520 nM	430 nM	
CN1CCCC(CN2CCN(C(=O)CC(c3ccccc3)c3ccccc3)CC2)C1 (stereo not shown)	500 nM	300 nM	
Cc1cccc(C)c1NC(=O)CN1CCN(C(=O)CC(c2ccccc2)c2ccccc2)CC1	> 1000 nM	> 1000 nM	
Cc1ccc(N2CCN(C(=O)CC(c3ccccc3)c3ccccc3)CC2)cc1C	370 nM	290 nM	Block of α1G T-type Channels IC50 ([2]; −100 mV): No effect
C[Si](C)(C)c1ccc(N2CCN(C(=O)CC(c3ccccc3)c3ccccc3)CC2)cc1	361 nM	298 nM	
O=C(CC(c1ccccc1)c1ccccc1)N1CCN(CCOc2ccc(F)cc2F)CC1	597 nM	398 nM	
O=C(CC(c1ccccc1)c1ccccc1)N1CCN(CCOc2ccc(Cl)cc2Cl)CC1	364 nM	308 nM	
COc1cc(C(=O)NCCN2CCN(C(=O)CC(c3ccccc3)c3ccccc3)CC2)cc(OC)c1OC	421 nM	275 nM	
CC(C)(C)c1cc(CN2CCN(C(=O)CC(c3ccccc3)c3ccccc3)CC2)cc(C(C)(C)C)c1O	387 nM	292 nM	
CCCN(CCC)CCN1CCN(C(=O)CC(c2ccccc2)c2ccccc2)CC1	554 nM	413 nM	
O=C(CC(c1ccccc1)c1ccccc1)N1CCN(CCOc2ccc3c(c2)OCO3)CC1	400 nM	280 nM	
O=C(CC(c1ccccc1)c1ccccc1)N1CCN(c2cccc(Cl)c2Cl)CC1	650 nM	410 nM	IC50 ([2]; −100 mV): 905 nM
O=C(CC(c1ccccc1)c1ccccc1)N1CCN(C2CCCCCC2)CC1	430 nM	240 nM	

Second part, led by results:

IC50 ([1]; 0.067 Hz)	IC50 ([1]; 0.2 Hz)	SMILES	other results
263 nM	130 nM	O=C(CC(c1ccccc1)c1ccccc1)N1CCN(Cc2cccc3ccccc23)CC1	
290 nM	150 nM	O=C(CC(c1ccccc1)c1ccccc1)N1CCN(C(c2ccccc2)c2cccs2)CC1 (stereo not shown)	
240 nM	320 nM	O=C(CC(c1ccccc1)c1ccccc1)N1CCN(c2ccc(Cc3ccc(F)cc3)cc2)CC1	
349 nM	282 nM	O=C(CC(c1ccccc1)c1ccccc1)N1CCN(CCOc2ccc(F)cc2)CC1	Block of α1G T-type Channels IC50 ([2]; −100 mV): No effect
261 nM	217 nM	CCC(C)N1CCN(C(=O)CC(c2ccccc2)c2ccccc2)CC1 (stereo not shown)	
280 nM	180 nM	O=C(CC(c1ccccc1)c1ccccc1)N1CCN(c2cc(Cl)cc(Cl)c2)CC1	IC50 ([2]; −100 mV): 154 nM
183 nM	135 nM	COc1ccc(OCCN2CCN(C(=O)CC(c3ccccc3)c3ccccc3)CC2)cc1	
314 nM	174 nM	O=C(CC(c1ccccc1)c1ccccc1)N1CCN(c2ccc(-c3ccccc3)cc2)CC1	
313 nM	266 nM	O=C(CC(c1ccccc1)c1ccccc1)N1CCN(CCOc2c(F)c(F)cc(F)c2F)CC1	
190 nM	130 nM	CN1CCC(CN2CCN(C(=O)CC(c3ccccc3)c3ccccc3)CC2)CC1	selectivity for N-type versus P/Q-type and L-type channels ([3]; FIGS. 2 and 3): selectively block N-type channels; IC50 [3]: 257 nM; IC50 [4]: 2450 nM; IC50 [5]: 30000 nM
249 nM	159 nM	CN(C)CCCN1CCN(C(=O)CC(c2ccccc2)c2ccccc2)CC1	IC50 [3]: 214 nM; IC50 [4]: 6450 nM
240 nM	180 nM	O=C(CC(c1ccccc1)c1ccccc1)N1CCN(c2nc3ccccc3n2Cc2ccccc2)CC1	IC50 ([2]; −80 mV): 2.2 nM; IC50 ([2]; −100 mV): 8.8 nM
